Results taken from patent US9174946B2, “Selective FAK inhibitors” (priority 2011, dated 2015).

Sequences of proteins named here, by UniProt entry; tags and fusion partners are left off.
UniProt Q05397, whole entry: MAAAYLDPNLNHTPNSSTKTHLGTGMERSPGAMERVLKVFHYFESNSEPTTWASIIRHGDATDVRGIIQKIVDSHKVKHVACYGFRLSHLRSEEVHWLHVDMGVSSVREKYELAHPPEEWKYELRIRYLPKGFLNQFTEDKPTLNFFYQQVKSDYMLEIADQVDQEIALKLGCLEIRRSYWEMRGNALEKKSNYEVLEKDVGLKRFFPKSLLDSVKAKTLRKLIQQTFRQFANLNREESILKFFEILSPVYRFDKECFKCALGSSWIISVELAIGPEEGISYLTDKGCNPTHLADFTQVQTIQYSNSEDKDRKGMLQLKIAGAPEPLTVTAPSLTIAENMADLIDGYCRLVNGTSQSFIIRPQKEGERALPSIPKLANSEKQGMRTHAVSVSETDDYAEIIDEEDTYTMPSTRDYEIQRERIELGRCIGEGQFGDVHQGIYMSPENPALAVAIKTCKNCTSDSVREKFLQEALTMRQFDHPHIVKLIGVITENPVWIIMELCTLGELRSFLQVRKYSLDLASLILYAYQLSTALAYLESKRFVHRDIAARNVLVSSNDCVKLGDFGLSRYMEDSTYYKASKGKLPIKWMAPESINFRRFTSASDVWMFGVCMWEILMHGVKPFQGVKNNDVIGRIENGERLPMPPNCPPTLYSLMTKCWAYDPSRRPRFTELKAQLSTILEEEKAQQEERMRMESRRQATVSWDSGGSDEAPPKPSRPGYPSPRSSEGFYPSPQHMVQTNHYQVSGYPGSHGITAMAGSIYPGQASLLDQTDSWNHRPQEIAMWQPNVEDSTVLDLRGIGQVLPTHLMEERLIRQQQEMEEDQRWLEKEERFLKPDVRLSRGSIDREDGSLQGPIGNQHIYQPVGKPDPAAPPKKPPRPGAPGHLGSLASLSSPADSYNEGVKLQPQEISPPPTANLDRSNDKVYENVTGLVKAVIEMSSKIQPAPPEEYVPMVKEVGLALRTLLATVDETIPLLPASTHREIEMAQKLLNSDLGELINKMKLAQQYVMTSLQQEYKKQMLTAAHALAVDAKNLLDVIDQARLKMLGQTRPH

Target: T1, Y397-FAK phosphorylation (Homo sapiens, UniProt Q05397)
T1 construct: endogenous in cells; host or cells: MDA-231-LNA cells
Assay type: cell-based
Conditions: MDA-231-LNA cells; relative to control compound at 2 μM

CCc1cc(C2CCN(C)CC2)ccc1Nc1ncc(C(F)(F)F)c(CCc2ccccc2CC(N)=O)n1 [Compound 9, 2-(2-(2-(2-((2-Ethyl-4-(1-methylpiperidin-4-yl)phenyl)amino)-5-(trifluoromethyl)pyrimidin-4yl)ethyl)phenyl)acetamide]
% response of control at 2 μM: 112%
